Test results published in PubChem BioAssay (NCATS).
Only a part is listed here, and it is no random draw. Inconclusive results are not listed. The source made the active and inactive calls. Calls come from the whole dose curve; as a rule, active = well fitted curve in the direction sought with a large enough effect; inconclusive = small, poorly fitted or top-dose-only effect, or another doubt; inactive = no such curve, though single readings can be large; an effect the other way counts as inactive or inconclusive.

Assays:
[1] = Cell Viability - LYMP1-002 - Assay at 16 hr (AID 948); details: LYMP1-002 lymphoblastoid cell viability; at 92.2 µM (top of the series);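 note: 0% = DMSO alone and full effect = 92 µM tetraoctylammonium bromide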
Summary of the method: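 LYMP1-002 human lymphoblastoid cells, 2500/well; 5 hr 37 C; cpd 16 hr 37 C; CellTiter-Glo 30 min RT; luminescence (ATP). Concentration-response, Hill-fit AC50. Pos ctrl tetraoctylammonium bromide.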

[2] = MultiTox-Fluor Cytotoxicity Assay - LYMP1-002 - Live Cells (AID 955); details: LYMP1-002 lymphoblastoid live-cell protease fluorescence viability; at 46.1 µM (top of the series); note: % is set by controls: 0 for no effect and ±100 for the full control effect
Summary of the method: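 Human lymphoblastoid LYMP1-002 cells, 2500/well in complete medium, rested 5 hr at 37 C, then exposed to compounds for 16 hr at 37 C. Live-cell protease cleavage of GF-AFC read by fluorescence (Ex/Em 405/510) after 60 min at room temperature; AC50 from Hill fits.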

[3] = MultiTox-Fluor Cytotoxicity Assay - LYMP1-002 - Dead Cells (AID 960); details: LYMP1-002 lymphoblastoid cells, dead-cell protease fluorescence; at 46.1 µM (top of the series); note: nearly all actives have a fitted effect of over 60% in size
Summary of the method: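 Human lymphoblastoid cells (LYMP1-002), 2500/well in complete medium, were exposed to compounds for 16 hr at 37 C. Dead-cell protease activity was read as bis-AAF-R110 fluorescence (Ex/Em 485/520), normalized to DMSO and 15 uM tetraoctylammonium bromide; AC50 from Hill fits.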

[4] = MultiTox-Fluor Cytotoxicity Assay - LYMP1-003 - Dead Cells (AID 961); details: LYMP1-003 lymphoblastoid cells, dead-cell protease fluorescence; at 92.2 µM (top of the series); note: nearly all actives have a fitted effect of over 70% in size
Summary of the method: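 LYMP1-003 lymphoblastoid, 2500 cells/well, 5 hr settle then 16 hr cpd at 37 C; MultiTox-Fluor reagent 60 min RT; Ex/Em 485/520 dead-cell signal; norm. DMSO = 0%, 15 uM tetraoctylammonium bromide = 100%; Hill AC50.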

[5] = MultiTox-Fluor Cytotoxicity Assay - LYMP1-003 - Live Cells (AID 962); details: LYMP1-003 lymphoblastoid cells, MultiTox-Fluor live-cell protease fluorescence; at 92.2 µM (top of the series);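 note: 0% = DMSO only and full loss = 92 µM tetraoctylammonium bromide; cytotoxic hits lower the live-cell protease signal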
Summary of the method: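 LYMP1-003 human lymphoblastoid cells (2500/well) in complete medium were preincubated 5 hr at 37 C, then exposed to compounds for 16 hr at 37 C. Live-cell protease cleavage of GF-AFC read by fluorescence (Ex/Em 405/510); AC50 from Hill fits.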

[6] = Cell Viability - LYMP1-003 - Assay at 24 hr (AID 963); details: LYMP1-003 lymphoblastoid cell viability; at 92.2 µM (top of the series);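 note: plate controls were DMSO only for no effect and tetraoctylammonium bromide positive control for full effect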
Summary of the method: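 Human lymphoblastoid LYMP1-003 cells (2500/well) were rested 5 hr at 37 C, then exposed to compounds in complete medium for 24 hr at 37 C. Cellular ATP was quantified by CellTiter-Glo luminescence, and AC50 values came from Hill fits of concentration-response data.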

[7] = Cell Viability - LYMP1-003 - Assay at 40 hr (AID 964); details: LYMP1-003 lymphoblastoid viability; at 92.2 µM (top of the series); note: % is set by controls: 0 for no effect and ±100 for the full control effect; nearly all actives have a fitted effect of over 60% in size
Summary of the method: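 Human lymphoblastoid LYMP1-003 cells, 2500/well in complete medium, rested 5 hr at 37 C, then exposed to compounds for 40 hr at 37 C. Viability read as intracellular ATP by CellTiter-Glo luminescence; AC50 from Hill fits of concentration-response data.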

[8] = Cell Viability - LYMP2-003 (AID 965); details: LYMP2-003 lymphoblastoid cell viability; at 92.2 µM (top of the series);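 note: cells exposed to compounds for 24 h before reading; 0% = DMSO only and full effect = 92 µM tetraoctylammonium bromide; nearly all actives have a fitted effect of over 50% in size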
Summary of the method: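 CellTiter-Glo luminescence (cellular ATP) after 24 h compound exposure at 37 C in complete medium; 2500 cells/well, 5 h settling beforehand. Concentration-response fitted to standard Hill equation for AC50. Tetraoctylammonium bromide served as positive control.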

[9] = Cell Viability - LYMP2-004 (AID 966); details: LYMP2-004 lymphoblastoid cell viability, qHTS; at 92.2 µM (top of the series);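 note: plate controls were DMSO only for no effect and tetraoctylammonium bromide control for full effect; nearly all actives have a fitted effect of over 65% in size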
Summary of the method: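 Human lymphoblastoid cells (2500/well) in complete medium were treated with compounds for 24 hr at 37 C, then intracellular ATP was measured by CellTiter-Glo luminescence. AC50 values came from Hill-equation fits of concentration-response data.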

[10] = Cell Viability - LYMP2-005 (AID 967); details: LYMP2-005 lymphoblastoid cell viability; at 92.2 µM (top of the series);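 note: plate controls were DMSO only for no effect and 92 µM tetraoctylammonium bromide control for full effect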
Summary of the method: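 Steps: seed 2500 LYMP2-005 cells/well, incubate 5 h at 37 C, add compound, incubate 24 h at 37 C, add CellTiter-Glo, wait 30 min at RT, read luminescence. Concentration-response data fitted to Hill equation for AC50.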

[11] = Cell Viability - LYMP2-009 (AID 968); details: LYMP2-009 lymphoblastoid cell viability; at 92.2 µM (top of the series);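 note: 0% = DMSO alone and the full-kill end = tetraoctylammonium bromide at 92 µM; nearly all actives have a fitted effect of over 55% in size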
From the text: NIH Chemical Genomics Center [NCGC]
NIH Molecular Libraries Screening Centers Network [MLSCN]
National Institutes of Environmental Health Sciences [NIEHS]
National Toxicology Program [NTP]
We have developed a 1536-well cell-based assay for quantitative high throughput screening (qHTS) against a number of cell lines to determine in vitro cytotoxicity of small molecules. This particular assay uses a human lymphoblastoid cell line (LYMP2-009) purchased from Coriell Institute for Medical Research.
NCGC Assay Protocol Summary:
The CellTiter-Glo luminescent cell viability assay (Promega) is a homogeneous method to measure the number of viable cells in culture. The end point readout of this assay is based on quantitation of intracellular ATP, an indicator of metabolic activity, using the luciferase reaction. […]
Using the CellTiter-Glo luminescent cell viability assay, the amount of cellular ATP was measured in the lymphoblastoid cell line with complete culture medium following compound treatment for 24 hours. […] Library compounds were measured for their ability to cause acute toxicity in the cell line, as reflected by a decrease in intracellular ATP levels, in a concentration-dependent manner. […] AC50 values were determined from concentration-response data modeled with the standard Hill equation. […]
8. Detection; Luminescence; Viewlux plate reader […]

[12] = Cell Viability - LYMP2-011 (AID 969); details: LYMP2-011 lymphoblastoid cells viability; at 92.2 µM (top of the series);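 note: 0% = DMSO only and full inhibition = 92 µM tetraoctylammonium bromide; nearly all actives have a fitted effect of over 60% in size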
Summary of the method: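 Human lymphoblastoid cells (2500/well) were plated in complete medium, preincubated 5 hr at 37 C, then exposed to compounds for 24 hr at 37 C. Intracellular ATP was read by CellTiter-Glo luminescence, and AC50 came from Hill-equation concentration-response fits.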

[13] = Cell Viability - LYMP2-013 (AID 970); details: LYMP2-013 lymphoblastoid cells viability; at 92.2 µM (top of the series);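 note: 0% = DMSO only and full inhibition = tetraoctylammonium bromide control; nearly all actives have a fitted effect of over 55% in size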
Summary of the method: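 Human lymphoblastoid cells, 2500/well, were preincubated 5 hr at 37 C, then treated with compounds for 24 hr at 37 C in complete medium. Intracellular ATP was read by CellTiter-Glo luminescence; AC50 from Hill-equation fits of concentration-response data.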

[14] = Cell Viability - LYMP2-015 (AID 971); details: LYMP2-015 lymphoblastoid cell viability; at 92.2 µM (top of the series);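 note: 0% = DMSO only and full effect = 92 µM tetraoctylammonium bromide; nearly all actives have a fitted effect of over 55% in size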
Summary of the method: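 Human lymphoblastoid cells (2500/well) in complete medium were preincubated 5 hr at 37 C, then compound-treated 24 hr at 37 C. Intracellular ATP was read by CellTiter-Glo luminescence after 30 min at room temperature; AC50 came from Hill-equation concentration-response fits.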

[15] = Cell Viability - LYMP2-017 (AID 972); details: LYMP2-017 lymphoblastoid cell viability; at 92.2 µM (top of the series); note: % is set by controls: 0 for no effect and ±100 for the full control effect; nearly all actives have a fitted effect of over 55% in size
Summary of the method: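 Human lymphoblastoid cells (2500/well) were seeded in complete medium, held 5 hr at 37 C, then exposed to compounds for 24 hr at 37 C. Intracellular ATP was read by CellTiter-Glo luminescence after 30 min at room temperature, with AC50 values from Hill-equation fits.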

[16] = Cell Viability - LYMP2-019 (AID 973); details: LYMP2-019 lymphoblastoid cell line viability; at 92.2 µM (top of the series)
Summary of the method: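 Human lymphoblastoid cells were seeded at 2500 cells/well, preincubated 5 hr at 37 C, then exposed to compounds for 24 hr at 37 C in complete medium. Intracellular ATP was measured by CellTiter-Glo luminescence; AC50 from Hill fits.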

[17] = Cell Viability - LYMP2-021 (AID 974); details: LYMP2-021 lymphoblastoid cells viability; at 92.2 µM (top of the series)
Summary of the method: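 Human lymphoblastoid cells (2500/well) were preincubated 5 hr at 37 C, then exposed to compounds for 24 hr at 37 C in complete medium. Intracellular ATP was read by CellTiter-Glo luminescence; AC50 came from Hill-equation fits of concentration-response data.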

[18] = Cell Viability - LYMP2-023 (AID 975); details: LYMP2-023 lymphoblastoid cell viability; at 92.2 µM (top of the series)
Summary of the method: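 Human lymphoblastoid cells (2500/well) were preincubated 5 hr at 37 C, then exposed to compounds for 24 hr at 37 C in complete medium. Cellular ATP was read by CellTiter-Glo luminescence, and AC50 came from Hill-equation fits.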

[19] = Cell Viability - LYMP2-025 (AID 976); details: LYMP2-025 lymphoblastoid cell viability; at 92.2 µM (top of the series);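 note: plate controls were DMSO only for no effect and tetraoctylammonium bromide control for full effect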
Summary of the method: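 Human lymphoblastoid LYMP2-025 cells (2500/well) were pre-incubated 5 hr at 37 C, then treated with compounds for 24 hr at 37 C in complete medium. Viability was read as intracellular ATP by CellTiter-Glo luminescence; AC50 from Hill fits.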

[20] = Cell Viability - LYMP2-002 (AID 977); details: LYMP2-002 lymphoblastoid cell viability, qHTS; at 92.2 µM (top of the series);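 note: plate controls were DMSO only for no effect and 92 µM tetraoctylammonium bromide for full effect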
Summary of the method: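 Cytotoxicity is scored as concentration-dependent loss of cellular ATP in a human lymphoblastoid line after 24 hr compound treatment at 37 C. AC50 is obtained by modelling concentration-response data with the Hill equation.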

ClCCOP(OCCCl)OCCCl
inactive: activity change, negative = cytotoxicity [1] -3.05% | viability change, negative = cytotoxic [2] -0.164% | cytotoxicity (dead cells) [3] 5.2% | cytotoxicity (dead cells) [4] -4.21% | activity change, negative = fewer live cells [5] -2.04% | viability change, negative = cytotoxic [6] 2.91% | activity change, negative = cytotoxic [7] -0.643% | activity change, negative = cytotoxicity [8] 0.407% | activity change, negative = cytotoxicity [9] -1.94% | activity change, negative = viability loss [10] 0.283% | activity change, negative = viability loss [11] -2.5% | viability change, negative = cytotoxic [12] -4.24% | activity change, negative = cytotoxic [13] -6.33% | activity change, negative = lower viability [14] -12.7% | activity change, negative = cytotoxicity [15] -16.5% | activity change, negative = cytotoxicity [16] -3.9% | activity change, negative = cytotoxicity [17] -3.77% | activity change, negative = cytotoxicity [18] -1.04% | activity change, negative = cytotoxicity [19] -8.88% | activity change, negative = cytotoxic [20] -5.85%

CCOP(=O)(Cl)Cl
inactive: activity change, negative = cytotoxicity [1] -1.49% | viability change, negative = cytotoxic [2] 1% | cytotoxicity (dead cells) [3] 0.886% | cytotoxicity (dead cells) [4] -1.57% | activity change, negative = fewer live cells [5] -1.9% | viability change, negative = cytotoxic [6] -3.94% | activity change, negative = cytotoxic [7] -7.35% | activity change, negative = cytotoxicity [8] 13.8% | activity change, negative = cytotoxicity [9] 6.93% | activity change, negative = viability loss [10] -1.74% | activity change, negative = viability loss [11] -16.2% | viability change, negative = cytotoxic [12] -2.9% | activity change, negative = cytotoxic [13] -2.09% | activity change, negative = lower viability [14] -9.05% | activity change, negative = cytotoxicity [15] -11.4% | activity change, negative = cytotoxicity [16] -4.91% | activity change, negative = cytotoxicity [17] -8.02% | activity change, negative = cytotoxicity [18] -1.88% | activity change, negative = cytotoxicity [19] -13.2% | activity change, negative = cytotoxic [20] -1.1%
